Test results reported in patent publication US4012395A, “Process for preparing thiazolidinone acetic acid derivatives” (Warner-Lambert Company, priority 1974, dated 1977).

Test system: rats
Conditions: rat, in vivo, iv

Compound CCOC(=O)/C=C1\SC(N2CCCCC2)C(=O)N1C (stereo not drawn) [Etozolin, ethyl-3-methyl-4-oxo-5-piperidino-Δ^2,α -thiazolidineacetate] has an LD50 confidence limits of 45.9 to 69.5 mg/kg.
